Test results: US5362364A, “Process for producing alkaline paper” (Mitsubishi Paper Mills Limited, priority 1990, dated 1994)

Assays:
[1] = test system: Salmonella typyhimurium TA 100; experiment: mutagenicity test (reverse mutation test) on hand sheet extract, Ministry of Labor Order No. 261; assay type: cell-based; settings: compared with Sample 3-1 and 4-1 (DMTT) or Sample 7-1 and 8-1 (bromonitroalcohol)
Protocol: The mutagenicity test was carried out according to Ministry of Labor, Labor Standards Office, Order No. 261 (May 18, 1985). That is, each hand sheet was subjected to extraction using a mixture of benzene/ethanol (9/1, by volume) at 80° C. for three hours, and the resulting extractant was subjected to a reverse mutation test using Salmonella typyhimurium TA 100 without following a metabolism activating method.
When the number of reverse mutation colony increased to twice or more that in the case of dimethyl sulfoxide used as a control solvent, it was determined "positive".
(§1) Measurement of the sizing degree, evaluation of the mutagenicity, and ninhydrin reaction in Table 3 and Table 4 were conducted in the same manner as in Table 1 and Table 2.

[2] = test system: slime; experiment: ninhydrin reaction of the paper stock filtrate (slime formation); settings: slime inhibition with slimecide added in advance to cationic starch; based on paper stock solid matter
Protocol: (§2) A part of the paper stock as obtained above was stored at 32° C. for 7 days and then, filtered by means of a wire screen. The filtrate was subjected to ninhydrin reaction and the effectiveness of the slimecide controlling agent was evaluated based on the result of the ninhydrin reaction. The filtrate was called "Sample 1-2".
Ninhydrin reaction was effected by adding 0.5 ml of a 1% aqueous solution of nonhydrin to 10 ml of the filtrate, and the result was evaluated depending on the degree of color change of the resulting solution to reddish purple.
as §2, with “net.” for “screen.”, “slime” for “slimecide”, “5-2".” for “1-2".”
as §1

CN1CSC(=S)N(C)C1 [DMTT, 3,5-dimethyltetrahydro-1,3,5-2H-thiadiazine-2-thione]
safety for man [1]: very safe for man
amount of slimecide relative to amount added in conventional manner [2]: about 1/5
